ClpP mod = qHTS Assay for Activators of ClpP. ATP-dependent Clp protease proteolytic subunit (Bacillus subtilis (strain 168)), P80244. purified B. subtilis ClpP, FRET peptide cleavage, 20 min. Potency, µM (titrated, usually from 57.5 µM), inactives show top-dose activity change, negative = active. actives 1.9% (n = 340,000). AID 651965, 2013; active means well fitted falling curve with a large enough effect; inconclusive means small, poorly fitted or top-dose-only effect; inactive means no such curve, though single readings can be large or run the other way; further: potency means the concentration at half of the fitted maximal effect; the source files actives as falling curves though it sought activators and does not explain the sign; nearly all actives have a fitted effect of over 65% in size
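Buffer: 100 mM Tris/HCl pH8, 100 mM KCl, 0.05% low protease BSA, 2.5% glycerol, 0.01% Tween-20. ClpP 10 microg/mL final; 20 min RT; delta FRET normalized to ADEP and DMSO controls.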
TCR activator = activators of T cell receptors; primary human leukocytes, anti-CD3, IL-2 HTRF, 48 h; Potency, µM (highest dose often 9.22 µM), without a hit: at the top dose activation of IL-2 secretion, usual class: activators; 330,000 tested, under 10 active; AID 504894; further: % of control where 0% means no effect
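Using a-CD3 beads without co-stimulation, primary human leukocytes were exposed to compounds for 48 hr. An HTRF IL-2 kit measured the cytokine, with europium-to-d2 energy transfer producing emission at 665nm upon 320nm excitation.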
A549 viability = A549 cytotoxicity, counter-screen for Nrf2 inhibitors; actives 0.16% (n = 390,000); Potency, µM (highest dose often 46 µM), without a hit: at the highest dose activity change, negative = cytotoxicity, actives largely listed as inhibitors; A549 ARE-Fluc cells, CellTiter-Fluor viability, 18-24 h; further: potency means the concentration at half of the fitted maximal effect; on the % scale 0 is the no-effect control and ±100 the full control effect
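A549 ARE-Fluc cells in 5% FBS OPTI-MEM, 5000 cells/well, rested 2 h then exposed to compounds in concentration-response for 18-24 h at 37 °C. Viability by CellTiter-Fluor fluorescence (Ex 405/Em 525) after 30 min; luciferase luminescence (BugLite, 15 min, RT) read afterwards.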
Nrf2 activator = Nrf2 pathway activation. AID 624171. actives 0.31% (n = 410,000). Potency, µM (series often up to 46.1 µM), inactives show at the top dose activation, most hits filed as activators. AREc32 ARE-luciferase reporter (MCF7-derived line), luminescence, 24 h; further: potency means the concentration at half of the fitted maximal effect; % of control where 0% means no effect; nearly all actives have a fitted effect of over 65% in size
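Quantitative high-throughput format: AREc32 reporter cells, 1000 per well, received compound by pin transfer and were incubated 24 hr at 37 deg C, 5% CO2, before Steady-Glo luminescence detection.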
Nrf2 block = blocks Nrf2 signaling; A549 ARE-Fluc reporter, luciferase luminescence, 18-24 h; Potency, µM (top dose mostly 46 µM), inactives show at the highest dose activity change, negative = inhibition, usual class: inhibitors; actives 2.1% (n = 360,000); AID 504444; further: potency means the concentration at half of the fitted maximal effect; on the % scale 0 is the no-effect control and ±100 the full control effect; nearly all actives have a fitted effect of over 60% in size
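Nrf2 function is reported as luminescence of an ARE-controlled luciferase in A549 cells. Compounds were tested at several concentrations, and a CellTiter-Fluor read on the same wells flagged cytotoxicity.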
miR-21 reporter = miR-21 reporter, rising signal | AID 2288 | HeLa miR-21 FLuc reporter, luciferase, 48 h | 340,000 tested, under 10 active | Potency, µM (doses to about 38.3 µM), for inactives: at the top dose reporter change, positive = more light; active = well fitted rising curve with a large enough effect; inconclusive = small, poorly fitted or top-dose-only effect; inactive = no such curve, though single readings can be large or run the other way;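 note: % of control where 0% means no effect; miR-21 action dims this reporter so a rising signal means less miR-21 action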
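HeLa miR-21-FLuc reporter line, endogenous miR-21; 2000 cells/well in DMEM/10% FBS; compound titration up to ~40uM final, 48 h, 37 degree Celsius; luciferase detection reagent, 15 min lysis, CCD luminescence.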
* hit, by the source's call; ? = inconclusive; nt = no result given; [ ] = dose if it differs, or a comment. This is a sample that favours compounds with a hit; in the whole collection about 3.7% have one here. Unless noted, the call rests on the fitted dose curve; in most records, active means well fitted curve in the direction sought with a large enough effect; inconclusive means small, poorly fitted or top-dose-only effect, or another doubt; inactive means no such curve, though single readings can be large; an effect the other way counts as inactive or inconclusive.

Second line of a record – ClpP mod | TCR activator | A549 viability | Nrf2 activator | Nrf2 block | miR-21 reporter
1. CCC(=O)OCC(=O)[C@@]1(OC(=O)CC)[C@@H](C)C[C@H]2[C@@H]3CCC4=CC(=O)C=C[C@]4(C)[C@@]3(Cl)[C@@H](O)C[C@@]21C
    -2% | -13% | -5% | 6% | 0.0058µM* | nt
2. CCCC(=O)O[C@]1(C(=O)COC(C)=O)CC[C@H]2[C@@H]3C[C@H](F)C4=CC(=O)C=C[C@]4(C)[C@@]3(F)[C@@H](O)C[C@@]21C
    2% | -1% | -12% | 0% | ? | -29%
3. Oc1cccc(/C=C/c2ccc3cccc(O)c3n2)c1
    0% | 4% | -3% | 4.5µM* | -4% | 3%
4. COC(=O)c1ccc(/C=C/c2ccc3cccc(OC)c3n2)cc1
    13µM* | -3%[46.1 µM] | 2% | 0% | 8% | -9%
5. COc1ccc(/C=C/c2ccc3cccc(O)c3n2)c(OC)c1OC
    -11% | 0% | -8% | 22µM* | ? | -17%
6. COc1cccc(/C=C/c2ccc3cccc(O)c3n2)c1OC
    -4% | -5% | -4% | ? | 0% | -18%
7. CN(C)c1ccc(CNC(=O)Cn2ccc3cc(S(=O)(=O)N4CCCCCC4)ccc32)cc1
    -1% | nt | 4% | 4% | -18% | 3%
8. CCNC(=O)/C(C#N)=C/c1c(N2CC(C)OC(C)C2)nc2ccccn2c1=O (stereo unspecified)
    -16% | 15%[46.1 µM] | ? | 1% | 13% | -3%
9. CNC(=O)/C(C#N)=C/c1c(N2CC(C)OC(C)C2)nc2ccccn2c1=O (stereo unspecified)
    28µM* | -4%[46.1 µM] | -12% | 0% | -10% | 0%
10. CC(=O)Nc1ccc(S(=O)(=O)NNC(=O)c2cc3c4ccccc4n(C)c3s2)cc1
    28µM* | -4% | -4% | 0% | -9% | -3%
11. O=c1c(Cl)c(NCCO)ncn1-c1ccccc1
    28µM* | 7%[46.1 µM] | -4% | 0% | 20% | -7%
12. Cc1ccc2c(c1)C(N1CCCC1=O)CC(c1ccco1)N2 (stereo unspecified)
    ? | 0% | -3% | 11µM* | ? | -35%
13. Cc1ccc(C2CC(c3ccco3)n3ncnc3N2)cc1 (stereo unspecified)
    -4% | 9% | 4% | 1% | 8% | -12%
14. CCOC(=O)c1cc(-c2ccccc2)nn1-c1ccccn1
    -1% | nt | -9% | 0% | 17% | -11%
15. CCOC(=O)c1cc(-c2cccnc2)nn1-c1ccccc1
    nt | -8% | 2% | 4% | 12µM* | -1%
16. CCNC(=O)C1(C)CCN(C(=O)c2c(-c3ccccc3)noc2C)C1 (stereo unspecified)
    0% | nt | nt | 1% | nt | nt
17. C=CC[C@@H](Cc1ccc(F)cc1)C(=O)OC[C@H]1CCCN1C(=O)[C@@H](CC=C)CC(=O)N[C@H](CO)Cc1ccccc1
    0% | 3% | ? | 1% | 18µM* | nt
18. C=CC[C@@H](Cc1ccc(F)cc1)C(=O)OC[C@H]1CCCN1C(=O)[C@H](CC=C)CC(=O)N[C@H](CO)Cc1ccccc1
    0% | 1% | ? | 2% | 23µM* | nt
19. Cc1cc(C)c(S(=O)(=O)N2CCCCC2CCNC(=O)C(=O)NCc2ccco2)c(C)c1 (stereo unspecified)
    14µM* | -2% | -19% | ? | ? | nt
20. Cc1ccc(S(=O)(=O)N2CCCCC2CCNC(=O)C(=O)NCc2ccco2)cc1 (stereo unspecified)
    nt | -5% | -12% | 4% | 1% | nt

Compounds shown so far that contain four or more nitrogen atoms:
Second line of a record – ClpP mod | TCR activator | A549 viability | Nrf2 activator | Nrf2 block | miR-21 reporter
7. CN(C)c1ccc(CNC(=O)Cn2ccc3cc(S(=O)(=O)N4CCCCCC4)ccc32)cc1
    -1% | nt | 4% | 4% | -18% | 3%
8. CCNC(=O)/C(C#N)=C/c1c(N2CC(C)OC(C)C2)nc2ccccn2c1=O (stereo unspecified)
    -16% | 15%[46.1 µM] | ? | 1% | 13% | -3%
9. CNC(=O)/C(C#N)=C/c1c(N2CC(C)OC(C)C2)nc2ccccn2c1=O (stereo unspecified)
    28µM* | -4%[46.1 µM] | -12% | 0% | -10% | 0%
10. CC(=O)Nc1ccc(S(=O)(=O)NNC(=O)c2cc3c4ccccc4n(C)c3s2)cc1
    28µM* | -4% | -4% | 0% | -9% | -3%
13. Cc1ccc(C2CC(c3ccco3)n3ncnc3N2)cc1 (stereo unspecified)
    -4% | 9% | 4% | 1% | 8% | -12%

The listing continues:
Second line of a record – ClpP mod | TCR activator | A549 viability | Nrf2 activator | Nrf2 block | miR-21 reporter
21. COc1ccc(/C=N/NC(=O)c2nc(Cl)c(Cl)c(N)c2Cl)cc1COc1ccc(F)cc1F
    7.9µM* | -1% | -2% | 6% | nt | -12%
22. COc1ccc(/C=N/NC(=O)c2cc(C(C)(C)C)[nH]n2)cc1COc1ccc(F)cc1F
    -7% | -3% | ? | -1% | 21µM* | 12%
23. COc1ccc(/C=N\NC(=O)c2ccccc2F)cc1COc1ccc(F)cc1F
    -13% | 3% | ? | 0% | -17% | 6%
24. CC(=O)Oc1cc2cccc(OC(C)=O)c(=O)c2c(OC(C)=O)c1OC(C)=O
    0% | 6% | ? | -1% | -25% | 20%
25. CC(=O)Oc1cc2c(c3ccccc13)CCC2=O
    1% | -9% | 0% | 13µM* | -1% | nt
26. N#Cc1cc(-c2ccccc2)c[nH]c1=O
    7.9µM* | -2% | -12% | 0% | -1% | -3%
27. CCN(C(=O)COC(=O)Cc1coc2cc(C)ccc12)c1c(N)n(Cc2ccccc2)c(=O)[nH]c1=O
    -1% | -2% | 20% | 1% | 0% | nt
28. Cc1ccc2c(CC(=O)N(C)c3c(N)n(Cc4ccccc4)c(=O)[nH]c3=O)coc2c1
    25µM* | 9% | 0% | 0% | -16% | nt
29. CSc1nnc(N2C(=O)C(O)=C(C(=O)c3ccc(C)o3)C2c2ccc(C)cc2)s1 (stereo unspecified)
    -2% | 6% | -21% | 4% | ? | -51%
30. CC1=C(C(=O)N(C)C)CC(CC(=O)NC2CCCCC2)C(=O)N1CCC1=CCCCC1 (stereo unspecified)
    1% | nt | nt | 5% | nt | nt
31. O=C(NCCCCc1ccccc1)c1cccc(NC(=O)C2CCC2)c1
    -2% | 9% | 0% | 1% | 16µM* | nt
32. O=C(NCCCCc1ccccc1)c1cccc(NC(=O)C2CCCCC2)c1
    -1% | -8% | -1% | 1% | ? | nt
33. O=C(Nc1ccc(S(=O)(=O)NC2CCCCC2)cc1)c1ccco1
    -2% | -6%[46.1 µM] | -5% | 3% | ? | -12%
34. O=C(Nc1ccc(S(=O)(=O)NC2CCCCC2)cc1)c1ccc(Br)o1
    -1% | 5% | -13% | 0% | 15µM* | 9%
35. Cc1nn(C(C)(C)C)c(OC(=O)c2ccc3c(c2)OCO3)c1Sc1ccccc1
    32µM* | 5% | -20% | 0% | ? | 11%
36. CCCCc1ccc(-n2nc3cc(C)c(NC(=O)Cc4ccccc4)cc3n2)cc1
    -18% | nt | 5% | 3% | ? | -14%
37. CN(CCc1ccccn1)C(=O)Nc1ccc(F)cc1
    -1% | -6% | 1% | 0% | 4% | -6%
38. CN(CCc1ccccn1)C(=O)Nc1ccc(C(C)(C)C)cc1
    28µM* | -1% | 5% | 3% | 4% | -30%
39. Cc1ccc(CNc2oc(-c3ccc(COc4ccc(C)cc4)o3)nc2C#N)cc1
    25µM* | nt | -10% | 6% | -27% | -16%
40. Cc1ccc(OCc2ccc(-c3nc(C#N)c(NCc4cccnc4)o3)o2)cc1
    35µM* | nt | -23% | 4% | ? | 10%

Assay outcomes from PubChem.
